The text below walks through data of PubChem BioAssay AID1777 (Sanford-Burnham Center for Chemical Genomics, 2009).

The chains behind the UniProt entries cited, without tags or fusion partners. Where a name states a change or a piece, a line headed by the entry shows the natural chain unless it says otherwise.
UniProt P41145: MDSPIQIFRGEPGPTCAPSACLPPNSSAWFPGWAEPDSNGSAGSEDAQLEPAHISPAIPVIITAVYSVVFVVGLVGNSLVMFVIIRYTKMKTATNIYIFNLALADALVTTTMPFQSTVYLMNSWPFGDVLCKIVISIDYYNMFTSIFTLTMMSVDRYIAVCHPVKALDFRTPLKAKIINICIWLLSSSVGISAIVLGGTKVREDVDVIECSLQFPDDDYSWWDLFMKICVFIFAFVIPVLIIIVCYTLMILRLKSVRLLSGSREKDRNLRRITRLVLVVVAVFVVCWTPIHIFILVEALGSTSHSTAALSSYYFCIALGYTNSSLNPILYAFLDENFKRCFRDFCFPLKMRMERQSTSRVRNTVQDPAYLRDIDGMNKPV

Some of the results follow. Results with a measured potency or affinity are listed apart. Calls of active or inactive are those of the source. Cut-off read from the data, not from the text of the source: active = activation above about 50% (passing the limit was not always enough); inactive = the rest.

The target in this assay is Kappa-type opioid receptor (Homo sapiens) (UniProt P41145). Nature of the assay: kappa opioid receptor activators – cell-based, luminescence, uHTS, primary screen (AID 1777). The settings on record: KOR beta-arrestin recruitment, at 10 µM, hits give high values.
With `O=C(Cn1c(-c2ccccn2)nc2ccccc21)N/N=C/c1ccccn1`, the activation is inactive: -3.6%.

Take `O=C(Cn1c(NCCO)nc2ccccc21)NCC1CCCO1` (configuration not stated): the activation was inactive: -0.6%.

On to `O=C(Cn1c(S(=O)(=O)Cc2ccccc2)nc2ccccc21)N1CCCCC1`, for which the activation was inactive: 1.3%.

Turning to `COCCN1CCn2c(nc3cc(NC(=O)c4cccs4)ccc32)C1`, the activation was inactive: -2.1%.

For the compound `COc1cc(C2NCCC3(OCCO3)C2(C)C)cc(OC)c1OC` (configuration not stated), the activation is inactive: -1.3%.

With `Cn1c(=O)n(CC(N)=O)c2ccccc21`, the activation was inactive: 2.9%.

Take `CCN(CC)CCn1c(NC(=O)c2ccc(Cl)cc2)nc2ccccc21`: the activation was inactive: 45.7%.

As to `CC1CCC2C(=O)N(c3ccc(NC4CCN(Cc5ccccc5)CC4)c([N+](=O)[O-])c3)C(=O)C2C1` (configuration not stated), the activation was inactive: -0.1%.

For `CCCC(=O)Nc1nnc(/C=C/c2ccc(OC)cc2)s1`, the activation was inactive: 3.1%.

As to `Cc1ccc2c(c1)C1CN(C)CCC1N2C(=S)Nc1ccc(OC(F)F)cc1` (configuration not stated), the activation is inactive: -2.8%.

Regarding `CC(=O)Nc1nc2ccccc2n1CCN(C)C`, the activation is inactive: 0.4%.

For `c1ccc2c(c1)nc1n2CCN1`, the activation is inactive: -2.4%.

On to `Cc1ccc(S(=O)(=O)c2nnn3c2nc(NC2CCN(Cc4ccccc4)CC2)c2ccccc23)cc1C`, for which the activation was inactive: 0.3%.

Consider `CCN(CC)CCn1cnc2c1c(=O)[nH]c(=O)n2Cc1ccccc1`, for which the activation was inactive: -1.7%.

Take `CN1CCC(N(C)c2nc(-c3ccccc3)nc3ccccc23)CC1`: the activation was inactive: -0.2%.

As to `C[C@H](NC(=O)N1CCn2c1nc1ccccc12)C(=O)NCC1CCCO1` (some centres not stated), the activation is inactive: 0.7%.

Regarding `CCC(=O)Nc1ccc(NC(=S)NC(=O)/C=C/c2ccco2)cc1`, the activation is inactive: -4.6%.

In the case of `c1ccc(Cn2c(CNc3nc4ccccc4n3CCN3CCCCC3)nc3ccccc32)cc1`, the activation is inactive: 2.4%.

Regarding `CN1CCN(C(=O)Cn2c(C(F)(F)F)nc3ccccc32)CC1`, the activation is inactive: -3.1%.

Regarding `O=C(OC1CN2CCC1CC2)c1ccc(Cl)cc1` (configuration not stated), the activation is inactive: 1.2%.

Regarding `Cn1cccc1/C=N/NC(=O)Cn1cnc2ccccc21`, the activation is inactive: 19.3%.

Regarding `CS(=O)(=O)c1ccc(Cl)c(NC(=O)COC(=O)C(O)(c2ccccc2)c2ccccc2)c1`, the activation is inactive: 0.5%.

Regarding `Cn1c(=O)c2c(ncn2CC(=O)Nc2cccc(S(=O)(=O)Nc3ccccc3F)c2)n(C)c1=O`, the activation was inactive: -0.1%.

As to `C(=N\c1nc2ccccc2n1CCN1CCOCC1)/c1cccs1`, the activation is inactive: 2.5%.

On to `Cc1nc2cc(C(F)(F)F)ccc2n1CCNc1nc(-c2ccc([N+](=O)[O-])c(Cl)c2)cs1`, for which the activation was inactive: -0.9%.

With `CC(C)C(NS(=O)(=O)c1cccc2nsnc12)C(=O)N1CCn2c1nc1ccccc12` (configuration not stated), the activation is inactive: -1.1%.

Consider `OCCNc1nc2ccccc2n1CCN1CCCCC1`, for which the activation is inactive: -5.4%.

As for `Cc1nc2ccccc2n1CC(=O)NCCN1CCOCC1`, the activation is inactive: 7.2%.

As for `O=[As](O)(O)c1cccnc1`, the activation is inactive: 3.5%.

Consider `Cn1c(=O)c2c(ncn2CC(=O)N2CCCCCC2)n(C)c1=O`, for which the activation is inactive: -0.2%.

`CN(C)C(=O)Cn1c(=O)n(C)c2ccccc21`: the activation is inactive: -1.4%.

In the case of `O=C(Cn1cnc2ccccc21)N/N=C/c1cccnc1`, the activation is inactive: 0.2%.

In the case of `CCOC(=O)C1=C(C)N=C2SCCC(=O)N2[C@@H]1/C=C/c1ccccc1`, the activation is inactive: -1.6%.

Take `O=C(Cn1c(-c2cncs2)nc2ccccc21)NC1CCCC1`: the activation is inactive: -5.3%.

On to `CCN(CC)CCn1c(NCc2cc(OC)ccc2OC)nc2ccccc21`, for which the activation is inactive: -0.8%.

As to `O=C(Cn1c(CO)nc2ccccc21)NC1CCCCCC1`, the activation was inactive: -2.6%.

As for `N#CCC(=O)N1CCn2c1nc1ccccc12`, the activation was inactive: -3.4%.

Consider `CCOC(=O)CSc1nc2ccccc2n1CC(=O)NC(C)(C)C`, for which the activation is inactive: -0.1%.

For the compound `Cc1c(Cl)c(C(=O)Nc2nc3ccccc3n2CCN2CCCCC2)nn1C`, the activation was inactive: -0.5%.

In the case of `O=[As](O)(c1cccc(O)c1)c1cccc(O)c1`, the activation was inactive: 3.9%.

Take `Cn1c(=O)c2c(ncn2CCN(CCO)Cc2ccccc2)n(C)c1=O`: the activation is inactive: 18.7%.

For the compound `C=CCOC(=O)C1=C(C)N=C2SCCC(=O)N2C1/C=C/c1ccccc1` (configuration not stated), the activation is inactive: 2.5%.

On to `COc1ccc(CNc2nc3ccccc3n2CCN2CCOCC2)cc1`, for which the activation is inactive: -2.1%.

With `Cc1cccc(OCC(=O)OC2CN3CCC2CC3)c1` (configuration not stated), the activation was inactive: -7.6%.

For `CC(C)c1ccccc1NC(=O)Cn1c(/C=C/c2ccccc2)nc2ccccc21`, the activation was inactive: 5.1%.

In the case of `CCc1ccc(NC(=O)Cn2c3[n+](c4c(F)c(F)ccc42)CCCCC3)cc1`, the activation is inactive: 2.4%.

`CC(C)(C)NC(=O)Cn1c(-c2nonc2N)nc2ccccc21`: the activation is inactive: 0.9%.

Take `O=[N+]([O-])c1ccc2c(c1)nc1n2CCN(C2CCCCC2)C1`: the activation is inactive: -4.8%.

`COC(=O)Cn1c(=N)n(CCN2CCCCC2)c2ccccc21`: the activation was inactive: 1.6%.

For the compound `Cn1c(=O)c2ncn(CC(=O)NCCOc3ccccc3)c2n(C)c1=O`, the activation was inactive: -1.5%.

`CC(C(=O)Nc1ccccc1C(=O)O)n1c(C(F)(F)F)nc2ccccc21` (configuration not stated): the activation is inactive: -0.1%.

For the compound `Cn1c(=O)c2c(ncn2CC(=O)N(Cc2ccccc2)c2ccccn2)n(C)c1=O`, the activation was inactive: -2.4%.

In the case of `O=C(Nc1nc2ccccc2n1CCN1CCCC1)C1CCCCC1`, the activation is inactive: 3.2%.

For the compound `CCN(CC)CCn1c(NCc2ccc(C)o2)nc2ccccc21`, the activation was inactive: 3.6%.

As to `CCC(C)NC(=O)Cn1c(COc2ccc(Cl)cc2Cl)nc2ccccc21` (configuration not stated), the activation was inactive: 1.8%.

For the compound `COc1ccc(N2CCn3c2nc2c3c(=O)n(CCN3CCOCC3)c(=O)n2C)cc1`, the activation is inactive: -2.3%.

For `CCC(C)[C@H](NC(=O)N1CCn2c1nc1ccccc12)C(=O)NCc1ccc(OC)cc1` (some centres not stated), the activation is inactive: -2.1%.

Regarding `Cn1c(=O)[nH]c(=O)c2c1ncn2CCN1CCOCC1`, the activation was inactive: -6.3%.

For `CCOC(=O)C1=C(Cn2cnc3ccccc32)NC(=O)NC1c1ccc(OC)cc1` (configuration not stated), the activation is inactive: -0.3%.

`CC(=O)Nc1nc2ccccc2n1CCN1CCOCC1`: the activation is inactive: -1.3%.

`Cc1nc2ccccc2n1C1CC(=O)N(N(C)C)C1=O` (configuration not stated): the activation is inactive: -1%.

`Cc1cccc(C)c1NC(=O)Cn1cnc2c(=O)n(C)c(=O)n(C)c21`: the activation is inactive: 7.3%.
